{"source": "PubChem BioAssay AID504648", "about": "(National Center for Advancing Translational Sciences (NCATS), 2011)", "note": "This is a selection; strong and weak results do not stand in their true shares. Inconclusive results are not listed. The source made the active and inactive calls. Calls come from the whole dose curve; as a rule, active = well fitted inhibition curve with a large enough effect; inconclusive = small, poorly fitted or top-dose-only effect, or effect the other way, or another doubt; inactive = no such curve, though single readings can be large or run the other way. % is set by controls: 0 for no effect and ±100 for the full control effect.", "data": [{"test": "Nrf2 qHTS screen for inhibitors: counterscreen for cytotoxicity", "settings": "A549 ARE-Fluc cells, CellTiter-Fluor viability, 18-24 h; at 46 µM (top of the series)", "excerpt": "NIH Molecular Libraries Probe Production Network [MLPCN]\nNIH Chemical Genomics Center [NCGC]\nAssay Provider: Shyam Biswal, Johns Hopkins University\nNrf2 is a transcription factor that maintains cellular redox homoestasis and protects cells from xenobiotics. Nrf2 binds to the antioxidant response element (ARE) to induce gene expression of a broad spectrum of genes that encode for antioxidants. […] Finding a small molecule that act as an inhibitor of Nrf2 function would represent a novel therapeutic target that could lead to improvement in survival of patients undergoing chemo- and/or radio- therapy.\nSo here we implemented a counterscreen to weed out the cytotoxic compounds.\n1. […]\nA concentration-response assay was performed with A549 ARE_Fluc cells which are suspended in 5% FBS OPTI-MEM. […] The plate is then incubated at 37deg C at 5% CO2 for 30 minutes before they are read on the ViewLux (Perkin Elmer) for a fluorescent read Ex=405(10)/Em=525(10) for a 3 second exposure, 2x binning, and high gain. […] Afterwards another ViewLux read is performed using the clear filter to get a luminescent read with the settings of 40 second exposure, 2x binning, and high gain. Cytotoxicity is assessed through the first fluorescent read and then biochemical activity against Nrf2 is measured in the luminescent read.", "values": [{"smiles": "O=C(Nc1cc([As](=O)(O)O)ccc1O)c1ccccc1", "activity change, negative = cytotoxicity": "inactive: -1.74%"}, {"smiles": "CC(C)/C=N\\N=C(\\N)N[N+](=O)[O-]", "activity change, negative = cytotoxicity": "inactive: 7.03%"}]}]}
